Assay results published in ChEMBL document CHEMBL3414460, “Antiprotozoal activity and DNA binding of dicationic acridones” (J Med Chem, 2015).
Where “and” joins values, the source holds several entries; their conditions need not be identical. Equal entries are not always repeated.

Test system: Hyperoartia
Assay: Binding affinity to fish sperm DNA by scatchard plot analysis

Compared with Cl.Cl.O=c1c2ccc(NC3=NCCN3)cc2[nH]c2ccc(NC3=NCCN3)cc12, Cl.Cl.O=c1c2cc(NC3=NCCN3)ccc2[nH]c2ccc(NC3=NCCN3)cc12 is lower in K: 31.4 ×10⁴ /M for the first, 13.1 ×10⁴ /M for the second.

Compared with O=C(O)C(F)(F)F.O=C(O)C(F)(F)F.O=C1c2ccc(NC3=NCCN3)cc2C(=O)c2ccc(NC3=NCCN3)cc21, Cn1c2ccc(NC3=NCCN3)cc2c(=O)c2cc(NC3=NCCN3)ccc21.O=C(O)C(F)(F)F.O=C(O)C(F)(F)F is higher in K: 9.6 ×10⁴ /M for the first, 25 ×10⁴ /M for the second.

Compound Cn1c2ccc(NC3=NCCN3)cc2c(=O)c2ccc(NC3=NCCN3)cc21.O=C(O)C(F)(F)F.O=C(O)C(F)(F)F has a K of 11.9 ×10⁴ /M.

For O=c1c2ccc(NC3=NCCN3)cc2[nH]c2cc(NC3=NCCN3)ccc12, the K was 26.5 ×10⁴ /M and 17.5 ×10⁴ /M.
